Assay results reported in PubChem BioAssay AID1259332 (Broad Institute, 2017).

Test system: B cell line, CD40 signaling inhibition reporter
Assay: CD40 pathway inhibition in B cells – B cell lineage, dose response (AID 1259332);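 further: cells stimulated with CD40 ligand tCD40L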

**Q.** `CCC1=CC2Cc3nc4ccc(Cl)cc4c(N)c3C(C1)C2` (stereo unspecified) was tested. Which AC50 did it give?
**A.** 9.51 µM
